The target of the assay is Mu-type opioid receptor (Homo sapiens, UniProt P35372). Put plainly: Inhibition of mu opioid receptor (unknown origin) assessed as reduction in intracellular cAMP accumulation relative to control.

By UniProt entry, the sequences of proteins in these tests, tags left out.
UniProt P35372, whole entry, looked up: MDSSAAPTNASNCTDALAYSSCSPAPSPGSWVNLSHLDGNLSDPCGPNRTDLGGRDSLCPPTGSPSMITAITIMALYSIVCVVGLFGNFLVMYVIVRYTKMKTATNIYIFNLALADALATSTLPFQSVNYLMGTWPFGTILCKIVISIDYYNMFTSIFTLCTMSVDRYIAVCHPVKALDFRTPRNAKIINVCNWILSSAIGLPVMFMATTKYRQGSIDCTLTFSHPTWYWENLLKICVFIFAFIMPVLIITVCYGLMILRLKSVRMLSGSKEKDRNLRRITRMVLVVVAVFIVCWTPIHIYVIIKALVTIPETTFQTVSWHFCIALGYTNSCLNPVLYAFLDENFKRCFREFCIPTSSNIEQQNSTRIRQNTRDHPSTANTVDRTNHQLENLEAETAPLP

Consider `C[C@@H](Cc1ccsc1)NC(=O)NC[C@H](Cc1ccccc1)N(C)C`, for which the maximal effect (Emax) was found to be 76%.

The values above are taken from ChEMBL document CHEMBL4406853 (Eur J Med Chem, 2019).
